According to patent US20190351076A1, “TUMOR CELL XENOGRAFT MODEL IN ZEBRAFISH, AND METHODS OF CONSTRUCTING AND USING THE SAME” (NANJING EMORY BIOTECHNOLOGY CO., LTD., priority 2017, published 2019):

Test system: HCC827
Assay: Human lung cancer cell line xenograft model in zebrafish (HCC827)
Assay type: in vivo
Details: 50 μM and 5 μM soak for three days, day 7 after injection

COc1cc2ncnc(Nc3ccc(F)c(Cl)c3)c2cc1OCCCN1CCOCC1 [gefitinib]
sensitivity of lung cancer cell line to gefitinib: sensitive
